From patent US9221831B2, “Buprenorphine analogs” (dated 2015)

Chains of the proteins cited; added tags and fusions are not shown.
UniProt P35372, whole entry: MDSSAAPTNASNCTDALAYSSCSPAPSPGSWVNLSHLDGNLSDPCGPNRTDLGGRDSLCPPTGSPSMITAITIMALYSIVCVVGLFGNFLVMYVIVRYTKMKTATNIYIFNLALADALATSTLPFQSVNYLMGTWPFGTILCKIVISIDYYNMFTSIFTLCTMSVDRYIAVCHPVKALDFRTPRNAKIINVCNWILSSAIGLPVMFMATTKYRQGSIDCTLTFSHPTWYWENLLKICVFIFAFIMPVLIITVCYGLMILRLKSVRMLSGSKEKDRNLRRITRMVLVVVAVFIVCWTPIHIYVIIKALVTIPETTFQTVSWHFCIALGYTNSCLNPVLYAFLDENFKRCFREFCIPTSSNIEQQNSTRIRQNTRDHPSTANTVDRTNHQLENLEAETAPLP
UniProt P41146, whole entry: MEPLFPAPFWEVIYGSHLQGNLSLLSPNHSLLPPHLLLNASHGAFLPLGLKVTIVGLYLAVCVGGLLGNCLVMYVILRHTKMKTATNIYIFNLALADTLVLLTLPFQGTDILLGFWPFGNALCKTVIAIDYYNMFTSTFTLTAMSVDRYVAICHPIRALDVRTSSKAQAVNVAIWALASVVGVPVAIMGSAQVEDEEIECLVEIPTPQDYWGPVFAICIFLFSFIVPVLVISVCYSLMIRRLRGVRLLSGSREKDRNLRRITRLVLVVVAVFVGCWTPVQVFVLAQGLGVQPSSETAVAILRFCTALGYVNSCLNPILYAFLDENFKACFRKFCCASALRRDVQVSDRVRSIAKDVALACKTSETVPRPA
UniProt P41145, whole entry: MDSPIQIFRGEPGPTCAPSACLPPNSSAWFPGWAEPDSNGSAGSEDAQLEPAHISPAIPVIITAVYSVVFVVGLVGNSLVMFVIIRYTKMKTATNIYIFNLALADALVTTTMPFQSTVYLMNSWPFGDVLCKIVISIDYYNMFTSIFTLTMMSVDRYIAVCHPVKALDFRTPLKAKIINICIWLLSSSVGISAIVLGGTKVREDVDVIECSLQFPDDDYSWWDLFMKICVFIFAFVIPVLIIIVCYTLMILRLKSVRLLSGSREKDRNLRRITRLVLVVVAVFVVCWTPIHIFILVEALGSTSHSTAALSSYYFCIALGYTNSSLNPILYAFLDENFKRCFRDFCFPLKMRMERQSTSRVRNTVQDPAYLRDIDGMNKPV

Columns and labels:
[1] = molecular target: T1, δ opioid receptor (Homo sapiens (Human), UniProt P41143); assay: δ-opioid receptor functional assay ([35S]GTPγS); conditions: [35S]GTPγS functional assay
[2] = molecular target: μ-opioid receptor (Homo sapiens (Human), UniProt P35372); assay: μ-opioid receptor functional assay ([35S]GTPγS); conditions: [35S]GTPγS functional assay
[3] = molecular target: T2, human opioid receptor-like (ORL-1) (Homo sapiens (Human), UniProt P41146); assay: ORL-1 receptor functional assay ([35S]GTPγS); conditions: [35S]GTPγS functional assay
[4] = molecular target: κ opioid receptor (Homo sapiens (Human), UniProt P41145); assay: κ-opioid receptor functional assay ([35S]GTPγS); conditions: [35S]GTPγS functional assay
[5] = molecular target: T1, δ opioid receptor; assay: δ-opioid receptor binding assay ([3H]-Naltrindole dose-displacement)
[6] = molecular target: T2, human opioid receptor-like (ORL-1); assay: ORL-1 receptor binding assay ([3H]-nociceptin)

| SMILES | GTPγS Opioid Receptor δ Emax [1] | GTPγS Opioid Receptor μ Emax [2] | GTPγS ORL-1 Emax [3] | GTPγS Opioid Receptor κ Emax [4] | Binding Affinity, Opioid Receptor δ [5] | Binding Affinity, ORL-1 [6] |
| --- | --- | --- | --- | --- | --- | --- |
| CO[C@]12CC[C@@]3(C[C@@H]1COCc1ccccc1)[C@H]1Cc4ccc(F)c5c4[C@@]3(CCN1CC1CC1)[C@H]2O5 | 108.00% | 20.33% | 37.00% | 85.33% | – | – |
| COc1ccc2c3c1O[C@H]1[C@@]4(OC)CC[C@@]5(C[C@@H]4CSc4nncs4)[C@@H](C2)N(C)CC[C@]315 | – | – | – | 38.33% | Inactive | Inactive |
